Laboratory results as given in patent US6827926B2, “Metallotetrapyrrolic photosensitizing agents for use in photodynamic therapy” (Miravant Pharmaceuticals, Inc., priority 2001, dated 2004).

Tested on: normal skin of CD Hairless male rats
Type: in vivo, rat
Source text: We tested metallo- and metal-free tetrapyrroles systemically (see following section) for normal skin response in relation to the pharmacodynamic distribution of the photosensitizers in CD hairless rats. The skin of CD hairless rats are poorly developed, often referred to as hyperkeratotic, with various sized cystic hair follicles containing concentric lamellar accumulations of keratinaceous material, which are often associated with enlarged sebaceous glands. It quickly became apparent that gallium tetrapyrroles induced a marked clearing of the hyperkeratotic lesions in the treatment areas on the hairless rats. In fact, this clearing could be induced without necrosis of the skin. No other metallotetrapyrrole type produced such effects. This observation led us to assess the metallotetrapyrrolic compounds for skin restructuring effects both topically and systemically and for their ability to reduce hair growth in the following animal models.
Photosensitizer normal skin response as well as skin healing response, was evaluated using CD Hairless male rats. Photosensitizers were administered in an liposomal egg yolk phospholipid formulation at 1, 1.5 and 2 μmol/kg body weight formulation per dose group as a single bolus intravenous injection given through a marginal tail vein using a 27 gauge needle and a 1 cc tuberculin syringe. Normal skin responses were evaluated by irradiating several spots on the skin of the rat with a 532 nm laser (150 mW/cm^2, 150J, 1 cm diameter) at 1, 6, 24, 48, and 96 hrs post injection. Normal skin responses were evaluated and documented. The time at which the last spot is observed at the concentration injected is reported in the far right hand column in Tables 3, 4, 5 and 6. Skin samples were taken for histological evaluation at days 1, 10, 20 and 22 post light treatment. Rats were housed under normal lighting and all study procedures involving the test article were conducted under light filtered through blue and green Roscolox light filters to prevent photoactivation or degradation of the drug.

[1] = Table 3, time of last skin spot observed post injection, 532 nm laser

Substance | Normal skin Response (1 μmol) [1] [h] | Normal skin Response (1 μmol) (Table 4, time of last skin spot observed post injection) [h]
Aluminum Chloride 8,13-diethyl-3,7,12,17-tetramethylporphyrin-2,18-di(butanoic acid methyl ester) [Example 48] | 24 | –
Gallium Chloride 7,8,12,13-tetraethyl-12,17-dimethyl-10-azaporphyrin-2,18-di(3′-hydroxypropyl) [Example 23] | – | 96
Gallium Chloride 8,13-diethyl-3,7,12,17-tetramethylporphyrin-2,18-di(butanoic acid methyl ester) [Example 26] | 24 | –
Zinc 8,13-diethyl-3,7,12,17-tetramethylporphyrin-2,18-di(butanoic acid methyl ester) [Example 49] | 24 | –

Like-named read-outs stand apart in the source and are kept apart here.
